# Test results from paper PMC8467848 (Molecules, 2021).
# Protein sequences, listed by entry. Tags and fused reporters are not part of them.
# UniProt P42866, whole entry: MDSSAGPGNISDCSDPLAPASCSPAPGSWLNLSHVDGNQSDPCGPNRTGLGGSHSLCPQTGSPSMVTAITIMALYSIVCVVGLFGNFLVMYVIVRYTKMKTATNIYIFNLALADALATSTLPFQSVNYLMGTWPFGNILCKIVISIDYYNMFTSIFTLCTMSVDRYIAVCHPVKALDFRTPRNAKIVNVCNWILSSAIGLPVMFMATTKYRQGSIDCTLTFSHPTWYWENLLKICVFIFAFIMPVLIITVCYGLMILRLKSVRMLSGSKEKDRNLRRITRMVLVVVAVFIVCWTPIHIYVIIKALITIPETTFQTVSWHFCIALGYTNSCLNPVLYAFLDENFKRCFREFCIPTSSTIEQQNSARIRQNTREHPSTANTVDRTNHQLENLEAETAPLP
# UniProt P33534, whole entry: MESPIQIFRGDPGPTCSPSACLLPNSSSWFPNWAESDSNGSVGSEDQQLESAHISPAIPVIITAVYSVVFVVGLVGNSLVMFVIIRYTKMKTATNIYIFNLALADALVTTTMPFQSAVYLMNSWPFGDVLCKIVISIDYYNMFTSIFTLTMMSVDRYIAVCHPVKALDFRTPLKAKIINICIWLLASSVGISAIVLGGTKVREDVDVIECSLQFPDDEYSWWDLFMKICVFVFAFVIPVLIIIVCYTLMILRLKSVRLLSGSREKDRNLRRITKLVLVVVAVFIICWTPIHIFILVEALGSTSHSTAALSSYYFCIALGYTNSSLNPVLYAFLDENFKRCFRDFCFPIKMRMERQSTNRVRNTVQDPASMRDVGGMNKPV
# Counter-ions that a name gives are not always drawn.
# Target: μ-opioid receptor (Mus musculus, UniProt P42866)
# Test: Radioligand binding assay, displacement of [3H]DAMGO from mouse brain membranes
# Conditions: 24 vs isomer 20; 54 vs isomer 53
row,SMILES,fold lower μ-affinity compared to its isomer
1,CCC(=O)N1C2CCC3C1CCC2N3CC=C1CCc2ccccc21 (as salt: hydrochloride),2 fold

# Same assay, conditions: abstract and Figure 6 legend
row,SMILES,μ-affinity / binding in words
1,CCC(=O)N1C2CCC1C1CCC2N1CC=C1CCc2cc(F)ccc21 (as salt: hydrochloride),nanomolar range

# Target: κ-opioid receptor (Mus musculus, UniProt P33534)
# Test: Radioligand binding assay, displacement of [3H]U69593 from mouse brain membranes
# Conditions: abstract
row,SMILES,affinity towards κ-receptors in words
1,CCC(=O)N1C2CCC1C1CCC2N1CC=C1CCc2ccccc21 (as salt: hydrochloride),negligible affinity
2,CCC(=O)N1C2CCC1C1CCC2N1CC=C1CCc2cc(F)ccc21 (as salt: hydrochloride),negligible affinity
3,CCC(=O)N1C2CCC3C1CCC2N3CC=C1CCc2ccccc21 (as salt: hydrochloride),negligible affinity
4,CCC(=O)N1C2CCC3C1CCC2N3CC=C1CCc2cc(Cl)ccc21 (as salt: hydrochloride),negligible affinity

# Target: δ-opioid receptor (Mus musculus, UniProt P32300)
# Test: not given
# Conditions: abstract
row,SMILES,affinity towards δ-receptors in words
1,CCC(=O)N1C2CCC1C1CCC2N1CC=C1CCc2ccccc21 (as salt: hydrochloride),negligible affinity
2,CCC(=O)N1C2CCC1C1CCC2N1CC=C1CCc2cc(F)ccc21 (as salt: hydrochloride),negligible affinity
3,CCC(=O)N1C2CCC3C1CCC2N3CC=C1CCc2ccccc21 (as salt: hydrochloride),negligible affinity
4,CCC(=O)N1C2CCC3C1CCC2N3CC=C1CCc2cc(Cl)ccc21 (as salt: hydrochloride),negligible affinity

# Same assay, conditions: read-out: Ki (nM) δ; mouse brain membranes; tested as hydrochlorides; mean ± SEM of at least three experiments
row,SMILES,Ki
1,CCC(=O)N1C2CCC1C1CCC2N1CC=C1CCc2ccccc21 (as salt: hydrochloride),> 1000 nM
2,CCC(=O)N1C2CCC1C1CCC2N1CC=C1CCc2cc(F)ccc21 (as salt: hydrochloride),> 1000 nM
3,CCC(=O)N1C2CCC1C1CCC2N1CC=C1CCc2cc(Cl)ccc21 (as salt: hydrochloride),> 1000 nM
4,CCC(=O)N1C2CCC1C1CCC2N1CC=C1CCc2cc(Br)ccc21 (as salt: hydrochloride),> 1000 nM
5,CCC(=O)N1C2CCC3C1CCC2N3CC=C1CCc2ccccc21 (as salt: hydrochloride),> 1000 nM
6,CCC(=O)N1C2CCC3C1CCC2N3CC=C1CCc2cc(Cl)ccc21 (as salt: hydrochloride),> 1000 nM
7,CCC(=O)N1C2CCC3C1CCC2N3CC=C1CCc2cc(Br)ccc21 (as salt: hydrochloride),> 1000 nM
